ChEMBL document CHEMBL1152717, “Discovery of mu-opioid selective ligands derived from 1-aminotetralin scaffolds made via metal-catalyzed ring-opening reactions” (Bioorg Med Chem Lett, 2009)
Blank lines part the entries; values can stand above or below the compound they belong to.

Amino acid sequences for entries named in this document (tags omitted).
UniProt P35372, whole entry: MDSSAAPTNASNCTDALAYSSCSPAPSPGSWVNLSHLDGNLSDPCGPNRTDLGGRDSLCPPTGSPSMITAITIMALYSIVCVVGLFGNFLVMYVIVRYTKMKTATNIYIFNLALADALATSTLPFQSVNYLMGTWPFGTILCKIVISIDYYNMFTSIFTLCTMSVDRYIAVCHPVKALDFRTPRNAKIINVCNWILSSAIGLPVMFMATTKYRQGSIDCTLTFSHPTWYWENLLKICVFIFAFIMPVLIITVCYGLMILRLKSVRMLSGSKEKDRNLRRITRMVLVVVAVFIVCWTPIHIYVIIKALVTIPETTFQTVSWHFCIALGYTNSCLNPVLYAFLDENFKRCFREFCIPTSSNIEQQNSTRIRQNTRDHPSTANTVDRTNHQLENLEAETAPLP
UniProt P41143, whole entry: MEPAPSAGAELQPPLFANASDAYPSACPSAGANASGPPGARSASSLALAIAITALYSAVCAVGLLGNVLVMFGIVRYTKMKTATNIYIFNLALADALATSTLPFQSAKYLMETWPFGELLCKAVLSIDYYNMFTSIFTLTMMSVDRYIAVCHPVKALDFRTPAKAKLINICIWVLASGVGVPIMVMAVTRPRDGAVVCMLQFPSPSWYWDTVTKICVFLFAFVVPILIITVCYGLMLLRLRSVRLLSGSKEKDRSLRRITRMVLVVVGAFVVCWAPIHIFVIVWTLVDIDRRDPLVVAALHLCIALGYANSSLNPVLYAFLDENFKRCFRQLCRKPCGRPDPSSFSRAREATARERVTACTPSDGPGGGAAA

Key:
Mu-type opioid receptor [1] = biological target: T1, Mu-type opioid receptor (Homo sapiens, UniProt P35372); experiment: Displacement of [125I]FK33824 from human cloned mu opioid receptor
Mu-type opioid receptor [2] = biological target: T1, Mu-type opioid receptor; experiment: Activity at human cloned mu opioid receptor assessed as reversal of DAMGO-induced [35S]GTPgammaS binding; assay type: functional
[3] = biological target: Delta-type opioid receptor (Homo sapiens, UniProt P41143); experiment: Displacement of [125I]deltorphin 2 from human cloned delta opioid receptor

IC50 (Mu-type opioid receptor [1]): 0.772 µM
Compound: COCCN[C@H]1c2ccccc2CC[C@@H]1c1ccsc1

IC50 (Mu-type opioid receptor [2]): 19 µM
Compound: COCCN[C@@H]1c2ccccc2CC[C@H]1c1ccsc1

IC50 [3]: 7.16 µM
Compound: COCCNC1c2ccccc2CCC1c1ccsc1 (racemic)
